{
  "sequences": {"note": "The chains behind the UniProt entries cited, without tags or fusion partners.", "UniProt P55072, whole entry": "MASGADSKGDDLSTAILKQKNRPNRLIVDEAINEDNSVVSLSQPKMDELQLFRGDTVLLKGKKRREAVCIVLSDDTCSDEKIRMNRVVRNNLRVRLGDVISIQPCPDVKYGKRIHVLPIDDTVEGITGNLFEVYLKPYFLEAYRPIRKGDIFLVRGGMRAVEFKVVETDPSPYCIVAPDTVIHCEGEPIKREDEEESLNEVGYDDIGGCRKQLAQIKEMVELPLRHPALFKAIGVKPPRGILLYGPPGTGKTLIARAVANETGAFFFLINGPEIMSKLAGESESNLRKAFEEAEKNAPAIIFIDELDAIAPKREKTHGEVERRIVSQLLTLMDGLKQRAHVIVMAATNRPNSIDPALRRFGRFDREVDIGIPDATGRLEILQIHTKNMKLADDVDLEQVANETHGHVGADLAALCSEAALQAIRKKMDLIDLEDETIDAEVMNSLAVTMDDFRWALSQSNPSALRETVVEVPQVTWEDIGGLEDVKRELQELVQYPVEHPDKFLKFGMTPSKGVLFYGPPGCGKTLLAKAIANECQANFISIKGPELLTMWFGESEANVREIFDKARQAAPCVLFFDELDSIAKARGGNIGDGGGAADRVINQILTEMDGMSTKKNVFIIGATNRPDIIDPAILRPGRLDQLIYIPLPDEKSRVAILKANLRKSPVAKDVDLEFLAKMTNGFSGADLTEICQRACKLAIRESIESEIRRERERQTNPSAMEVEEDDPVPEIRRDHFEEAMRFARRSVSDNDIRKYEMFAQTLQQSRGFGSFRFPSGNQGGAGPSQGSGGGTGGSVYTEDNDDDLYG"},
  "source": "PubChem BioAssay AID1481",
  "about": "(The Scripps Research Institute Molecular Screening Center, 2009)",
  "note": "The list shows a part of the results, in another mix than the full data. Calls of active or inactive are those of the source. Cut-off read from the data, not from the text of the source: active = inhibition above about 15%; inactive = the rest.",
  "data": [
    {"target": "Transitional endoplasmic reticulum ATPase (Homo sapiens) (UniProt P55072)", "experiment": "inhibitors of human p97 ATPase, primary screen, biochemical (AID 1481);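 note: 0% = DMSO vehicle and 100% = wells lacking enzyme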", "settings": "recombinant p97 ATPase, Kinase-Glo ATP luminescence, 3 h; at 8 µM; hits give high values", "values": [
      {"compound": "CCOC(=O)NC(Sc1ccccc1)C(Cl)(Cl)Cl", "note": "(stereo unspecified)", "inhibition": "inactive: 4.02%"}
    ]}
  ]
}
